Data from US20060293223A1 (Eli Lilly and Company Patent Division, priority 2003, published 2006).

The chains behind the UniProt entries cited, without tags or fusion partners. Where a name states a change or a piece, a line headed by the entry shows the natural chain unless it says otherwise.
UniProt P41968: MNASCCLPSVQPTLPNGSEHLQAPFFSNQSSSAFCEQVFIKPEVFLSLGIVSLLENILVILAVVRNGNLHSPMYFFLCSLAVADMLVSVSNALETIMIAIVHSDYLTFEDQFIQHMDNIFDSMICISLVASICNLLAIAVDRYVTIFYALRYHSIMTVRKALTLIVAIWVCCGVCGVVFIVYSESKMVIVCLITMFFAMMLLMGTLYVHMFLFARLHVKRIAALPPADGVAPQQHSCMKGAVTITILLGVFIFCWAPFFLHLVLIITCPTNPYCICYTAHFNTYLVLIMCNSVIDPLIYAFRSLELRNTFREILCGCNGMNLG

Biological target: human MC3R (Homo sapiens, UniProt P41968)
Experiment: Melanocortin receptor whole cell cAMP accumulation assay, MC3 (Table 2, MC3 Potency, printed as Ki)
Assay type: cell-based
Conditions: HEK 293 cells

Substance | Ki
Ac-Tyr-Arg-cyclo[Cys-Glu-(1-Me-His)-(4-OMe-D-Phe)-Arg-Trp-Cys]-NH2 [Compound 94] | 157 nM
Arg-cyclo[Cys-His-D-Phe-Arg-Trp-hCys]-NH2 [Compound 186] | 182 nM
Arg-cyclo[hCys-(1-Me-His)-D-Phe-Arg-Trp-Cys]-NH2 [Compound 156] | 35.1 nM
Ac-cyclo[hCys-His-(β-cyclohexyl-D-Ala)-Arg-Trp-Cys]-NH2 [Compound 167] | ≥ 500 nM
Ac-Tyr-Arg-cyclo[hCys-Glu-His-D-Phe-Arg-Trp-hCys]-NH2 [Compound 197] | 248 nM
Ac-Tyr-Arg-cyclo[Cys-Glu-(β-((1-benzyl)-1,2,4-triazol-3-yl))-D-Ala)-D-Phe-Arg-Trp-Cys]-NH2 [Compound 108] | 167 nM
cyclo[hCys-His-(4-F-D-Phe)-Arg-Trp-Cys]-NH2 [Compound 134] | 7.19 nM
Ac-cyclo[hCys-His-(4-Cl-D-Phe)-Arg-Trp-Cys]-NH2 [Compound 140] | 1.87 nM
phenylsulfonyl-Gly-cyclo[hCys-His-D-Phe-Arg-Trp-Cys]-NH2 [Compound 161] | 1.67 nM
Ac-cyclo[Cys-His-(4-Cl-D-Phe)-Arg-Trp-hCys]-NH2 [Compound 185] | 12.7 nM
Ac-Tyr-Arg-cyclo[Cys-Glu-(3-Me-His)-D-Phe-Arg-Trp-Cys]-NH2 [Compound 96] | 85.3 nM
Ac-cyclo[Cys-Asp-His-D-Phe-Arg-Trp-Cys]-NH2 [Compound 6] | 296 nM
Ac-Tyr-Arg-cyclo[Cys-Glu-(β-((1-benzyl)-1,2,4-triazol-3-yl))-D-Ala)-D-Phe-Arg-Trp-Cys]-NH2 [Compound 109] | 333 nM
3-(4-methylbenzoyl)propionyl-Arg-cyclo[Cys-Glu-His-D-Phe-Arg-Trp-Cys]-NH2 [Compound 67] | 20.4 nM
Ac-Tyr-Val-cyclo[Cys-Glu-His-D-Phe-Arg-Trp-Cys]-NH2 [Compound 130] | 229 nM
Ac-Tyr-Arg-cyclo[Cys-Glu-(β-(1,3-thiazol-4-yl)-Ala)-D-Phe-Arg-Trp-Cys]-NH2 [Compound 112] | ≥ 500 nM
Ac-cyclo[hCys-His-D-Phe-Arg-Trp-Cys]-NH2 [Compound 137] | 9.77 nM
Ac-Tyr-Arg-cyclo[Cys-Glu-His-(4-Me-D-Phe)-Arg-Trp-Cys]-NH2 [Compound 92] | 8.56 nM
Ac-Tyr-Arg-cyclo[Cys-Ser-His-D-Phe-Arg-Trp-Cys]-NH2 [Compound 21] | 38.6 nM
Ac-cyclo[hCys-His-Phe-Arg-Trp-Cys]-NH2 [Compound 136] | > 500 nM
N-succinyl-Tyr-Arg-cyclo[Cys-Glu-His-D-Phe-Arg-Trp-Cys]-OH [Compound 131] | ≥ 500 nM
Ac-cyclo[Cys-Lys-His-D-Phe-Arg-Trp-Cys]-NH2 [Compound 16] | 303 nM
Ac-Tyr-Arg-cyclo[Cys-Glu-His-(4-Br-D-Phe)-Arg-Trp-Cys]-NH2 [Compound 89] | 2.54 nM
Ac-Tyr-Arg-cyclo[Cys-Asn-His-D-Phe-Arg-Trp-Cys]-NH2 [Compound 5] | 48 nM
N-cyclopentanecarbonyl-cyclo[hCys-His-D-Phe-Arg-Trp-penicillamine]-NH2 [Compound 171] | 2.5 nM
Ac-Cit-cyclo[Cys-Glu-His-D-Phe-Arg-Trp-Cys]-NH2 [Compound 55] | 174 nM
N-valeryl-cyclo[Cys-Glu-His-D-Phe-Arg-Trp-Cys]-NH2 [Compound 39] | 234 nM

Substance | Ki
Ac-Tyr-Arg-cyclo[Cys-Glu-His-D-Phe-Arg-Trp-Cys] alcohol [Compound 78] | ≥ 500 nM
Ac-Tyr-Arg-cyclo[Cys-Glu-(1-Me-D-His)-D-Phe-Arg-Trp-Cys]-NH2 [Compound 82] | ≥ 500 nM
N-cyclohexanecarbonyl-cyclo[hCys-His-D-Phe-Arg-Trp-Cys]-NH2 [Compound 144] | 2.23 nM
Ac-Tyr-Arg-cyclo[hCys-His-D-Phe-Arg-Trp-hCys]-NH2 [Compound 196] | 85.1 nM
Ac-Cit-cyclo[Cys-Glu-(1-Me-His)-D-Phe-Arg-Trp-Cys]-NH2 [Compound 56] | ≥ 500 nM
N-succinyl-Tyr-Arg-cyclo[Cys-Glu-His-D-Phe-Arg-Trp-Cys]-NH2 [Compound 74] | 107 nM
Ac-Tyr-Arg-cyclo[Cys-Glu-(5-Me-His)-D-Phe-Arg-Trp-Cys]-NH2 [Compound 97] | 17.9 nM
Ac-Tyr-Arg-cyclo[Cys-Glu-His-D-Phe-Arg-Trp-Cys]-Glu-NH2 [Compound 118] | 127 nM
Arg-cyclo[Cys-His-(4-Cl-D-Phe)-Arg-Trp-hCys]-NH2 [Compound 188] | 12.6 nM
Ac-Tyr-Arg-cyclo[Cys-Glu-(β-(2-furyl)-Ala)-D-Phe-Arg-Trp-Cys]-NH2 [Compound 110] | ≥ 500 nM
Ac-nLeu-cyclo[hCys-His-D-Phe-Arg-Trp-Cys]-NH2 [Compound 160] | 0.28 nM
Tyr-Arg-cyclo[Cys-Glu-His-D-Phe-Arg-Trp-Cys]-OH [Compound 69] | 222 nM
Ac-Tyr-Arg-cyclo[Cys-Glu-His-D-Phe-Arg-Trp-Cys]-NH-(CH2)6-NH2 [Compound 117] | 14.6 nM
Ac-D-Arg-cyclo[Cys-Glu-His-Phe-Arg-Trp-Cys]-NH2 [Compound 47] | > 500 nM
Ac-nLeu-cyclo[Cys-Glu-His-D-Phe-Arg-Trp-Cys]-Ser-Pro-NH2 [Compound 61] | 37.1 nM
Ac-nLeu-cyclo[Cys-Glu-His-D-Phe-Arg-Trp-Cys]-NH2 [Compound 60] | 97.1 nM
Ac-Val-cyclo[Cys-Glu-His-D-Phe-Arg-Trp-Cys]-NH2 [Compound 63] | 266 nM
3-guanidinopropionyl-cyclo[hCys-His-D-Phe-Arg-Trp-Cys]-NH2 [Compound 148] | 2.86 nM
Ac-cyclo[hCys-His-(4-F-D-Phe)-Arg-Trp-Cys]-NH2 [Compound 139] | 8.46 nM
Ac-cyclo[Cys-Gln-His-D-Phe-Arg-Trp-Cys]-NH2 [Compound 8] | 27.6 nM
N-benzoyl-cyclo[hCys-His-D-Phe-Arg-Trp-Cys]-NH2 [Compound 146] | 3.28 nM
N-glutaryl-Tyr-Arg-cyclo[Cys-Glu-His-D-Phe-Arg-Trp-Cys]-OH [Compound 76] | ≥ 500 nM
Ac-Tyr-(1-β-hArg)-cyclo[Cys-Glu-His-D-Phe-Arg-Trp-Cys]-NH2 [Compound 127] | 16.9 nM
Ac-Tyr-Arg-cyclo[Cys-Glu-(β-(thien-2-yl)-Ala)-D-Phe-Arg-Trp-Cys]-NH2 [Compound 111] | ≥ 500 nM
N-(2-naphthalenesulfonyl)-D-Arg-cyclo[Cys-Glu-His-D-Phe-Arg-Trp-Cys]-NH2 [Compound 64] | 13.2 nM
Ac-cyclo[Cys-Glu-His-(4-Br-D-Phe)-Arg-Trp-Cys]-NH2 [Compound 33] | 10.1 nM
Arg-cyclo[hCys-(1-Me-D-His)-D-Phe-Arg-Trp-Cys]-NH2 [Compound 157] | 355 nM

Substance | Ki
N-cyclopentanecarbonyl-cyclo[hCys-His-D-Phe-Arg-Trp-Cys]-NH2 [Compound 143] | 0.6 nM
5-guanidinovaleryl-cyclo[hCys-His-D-Phe-Arg-Trp-Cys]-NH2 [Compound 149] | 1.01 nM
Ac-Cya-Arg-cyclo[Cys-Ala-His-D-Phe-Arg-Trp-Cys]-NH2 [Compound 2] | 125 nM
Ac-Arg-cyclo[Cys-Glu-His-(4-Cl-D-Phe)-Arg-Trp-Cys]-NH2 [Compound 50] | 2.89 nM
3-(4-hydroxyphenyl)propionyl-Arg-cyclo[Cys-Glu-His-D-Phe-Arg-Trp-Cys]-NH2 [Compound 66] | 38.9 nM
D-Arg-cyclo[Cys-Glu-His-D-Phe-Arg-Trp-Cys]-NH2 [Compound 46] | 65.7 nM
Ac-Tyr-Arg-cyclo[Cys-Cya-His-D-Phe-Arg-Trp-Cys]-NH2 [Compound 28] | 71.3 nM
N-butyryl-cyclo[Cys-Glu-His-D-Phe-Arg-Trp-Cys]-NH2 [Compound 38] | 320 nM
Ac-Tyr-hArg-cyclo[Cys-Glu-His-D-Phe-Arg-Trp-Cys]-NH2 [Compound 126] | 91 nM
Ac-cyclo[hCys-His-D-Phe-Arg-Trp-hCys]-NH2 [Compound 193] | 95.4 nM
Ac-Tyr-Arg-cyclo[Cys-Glu-His-D-Phe-Arg-Trp-Cys]-2-(2-aminoethoxy)ethanol [Compound 115] | 39.8 nM
Ac-cyclo[Cys-His-D-Phe-Arg-Trp-hCys]-NH2 [Compound 183] | 360 nM
Ac-Tyr-Arg-cyclo[Cys-Glu-His-(4-F-D-Phe)-Arg-Trp-Cys]-NH2 [Compound 83] | 15 nM
Ac-Tyr-Arg-cyclo[Cys-Glu-(1-benzyl-His)-D-Phe-Arg-Trp-Cys]-NH2 [Compound 99] | 210 nM
Ac-Tyr-Arg-cyclo[D-Cys-Glu-His-D-Phe-Arg-Trp-Cys]-NH2 [Compound 80] | 112 nM
Ac-Tyr-Arg-cyclo[Cys-Glu-(1-Me-His)-D-Phe-Arg-Trp-Cys]-NH2 [Compound 81] | 496 nM
N-hexanoyl-cyclo[hCys-His-D-Phe-Arg-Trp-penicillamine]-NH2 [Compound 170] | 4.85 nM
Ac-Tyr-Arg-cyclo[Cys-Gln-His-D-Phe-Arg-Trp-Cys]-OH [Compound 9] | 364 nM
N-methyl-Tyr-Arg-cyclo[Cys-Met-His-D-Phe-Arg-Trp-Cys]-NH2 [Compound 17] | 26.1 nM
Ac-Tyr-Cit-cyclo[Cys-Glu-(1-Me-His)-D-Phe-Arg-Trp-Cys]-NH2 [Compound 125] | ≥ 500 nM
N-(2-naphthalenesulfonyl)-cyclo[hCys-His-D-Phe-Arg-Trp-Cys]-NH2 [Compound 151] | 41.4 nM
Ac-Tyr-Arg-cyclo[Cys-Glu-(β-(1,2,4-triazol-3-yl))-Ala)-D-Phe-Arg-Trp-Cys]-NH2 [Compound 106] | 320 nM
N-benzoyl-cyclo[hCys-His-D-Phe-Arg-Trp-penicillamine]-NH2 [Compound 173] | 9.65 nM
4-guanidinobutyryl-cyclo[Cys-Glu-His-D-Phe-Arg-Trp-Cys]-NH2 [Compound 41] | 62.5 nM
Ac-Arg-cyclo[hCys-His-D-Phe-Arg-Trp-Cys]-OH [Compound 159] | 19.6 nM
Ac-Tyr-Arg-cyclo[Cys-Glu-(5-Me-D-His)-D-Phe-Arg-Trp-Cys]-NH2 [Compound 98] | 254 nM
